The assay addresses T1, Neutrophil elastase (Homo sapiens, UniProt P08246).
T1 sequence (P08246 whole entry): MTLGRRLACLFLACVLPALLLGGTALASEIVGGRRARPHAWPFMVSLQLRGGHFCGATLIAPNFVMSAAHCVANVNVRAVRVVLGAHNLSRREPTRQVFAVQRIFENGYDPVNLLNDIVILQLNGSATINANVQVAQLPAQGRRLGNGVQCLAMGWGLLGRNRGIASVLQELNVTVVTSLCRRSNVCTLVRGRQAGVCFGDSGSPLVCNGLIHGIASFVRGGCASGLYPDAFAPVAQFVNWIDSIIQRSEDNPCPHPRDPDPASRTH
The assay is described as follows: Inhibition of human neutrophil elastase incubated for 40 mins in presence of Boc-Gln-Ala-Arg-AMC by fluorescence microtiter plate method. The assay is classed as cell-based.

On to `CC(C)(C)C(=O)Oc1ccc(S(=O)(=O)Nc2ccccc2C(=O)NCC(=O)O)cc1` [SIVELESTAT], for which the IC50 is 704 nM.

One may read the IC50 as the midpoint of a concentration-inhibition curve.

These data come from ChEMBL document CHEMBL5038647, “Elastase Inhibitor Cyclotheonellazole A: Total Synthesis and In Vivo Biological Evaluation for Acute Lung Injury” (J Med Chem, 2022).
